The values below come from article PMC6017931, “A Novel Class of Schistosoma mansoni Histone Deacetylase 8 (HDAC8) Inhibitors Identified by Structure-Based Virtual Screening and In Vitro Testing” (Molecules : A Journal of Synthetic Chemistry and Natural …, 2018).

The target of this test is T1, smHDAC8 (Schistosoma mansoni, UniProt A5H660).
T1 construct: made in house; host or cells: E. coli
T1 sequence (A5H660 1-440): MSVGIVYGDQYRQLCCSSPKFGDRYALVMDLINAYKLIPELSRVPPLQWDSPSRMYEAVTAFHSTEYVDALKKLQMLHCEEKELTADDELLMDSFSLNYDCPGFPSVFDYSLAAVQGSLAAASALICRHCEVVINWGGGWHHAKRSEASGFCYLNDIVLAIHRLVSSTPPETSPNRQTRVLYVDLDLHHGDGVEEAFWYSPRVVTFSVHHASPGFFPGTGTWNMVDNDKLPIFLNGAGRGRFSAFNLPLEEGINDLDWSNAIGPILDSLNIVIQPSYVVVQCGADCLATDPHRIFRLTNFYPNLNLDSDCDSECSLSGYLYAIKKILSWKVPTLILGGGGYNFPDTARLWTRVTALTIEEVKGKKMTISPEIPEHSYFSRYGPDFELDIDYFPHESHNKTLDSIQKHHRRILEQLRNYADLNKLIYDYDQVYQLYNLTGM
Put plainly: smHDAC8 in vitro inhibition assay. The note with it: mean ± S.E.; Fluor de Lys-HDAC8 substrate 50 µM, 90 min at 37 °C. The format is biochemical. Here is the method:
The biological assay was carried out using purified smHDAC8 protein and the small molecule substrate Z(Tfa)Lys-AMC (ZMTFAL) as previously reported. To assess the selectivity, the selected compounds were further tested against the human orthologue hsHDAC8 as well as the major human HDAC isoforms (HDAC1 and -6) using an established in vitro assay.
Recombinant human HDAC1 and HDAC6 were purchased from BPS Bioscience. Recombinant human HDAC8 was expressed and purified as previously described. Recombinant smHDAC8 enzyme was produced in E. coli cells and purified by a method previously described by us. Inhibition assays of smHDAC8 and human HDACs were performed as already described in previous publications. Briefly, the commercial Fluor de Lys kit (BML-KI178) was used for testing inhibition of smHDAC8 and hsHDAC8. Test compounds, Fluor de Lys-HDAC8 substrate (50 µM) and enzyme were incubated for 90 min at 37 °C with subsequent addition of 50 μL Developer II (BML-KI176) and further incubation for 45 min at 30 °C. Fluorescence was measured in a plate reader (BMG Polarstar) with excitation at λ = 390 nm and emission at λ = 460 nm. Inhibition tests of human HDAC1 and 6 were conducted using ZMAL (Cbz-(Ac)Lys-AMC) as substrate and trypsin as a developer. […] Fluorescence was measured similarly as mentioned above. IC50 values were determined with OriginPro (version 9.0.0, Northampton, MA, USA). […]

Each structure is given as a SMILES string.

In turn, `O=C(CCCCCCC(=O)Nc1ccccc1)NO` [SAHA, reference compound] came in with an IC50 of 1.56 ± 0.2 µM.

For orientation: IC50 means the concentration at which inhibition is half-maximal. Lower therefore signals inhibition by little substance.
